Molecular target: actin from rabbit skeletal muscle (rabbit) (UniProt P68135)

lag phase of pyrene-actin polymerization of the full system (3 µM actin, 0.3 µM VCA, 0.3 µM Arp2/3 complex, 13.5 µM profilin) in the presence of 20 nM CP: 1.5 min
Substance: heterodimeric capping protein (mouse α1- and β2-subunits) (from UniProt P47753 1-286; P47757-2 1-272) (complex)

From article PMC5915599
